This series in a line: PAMPA-BBB permeability assay. The series is classed as in vitro ADME. The note with it: donor 100 uM in DPBS, 37 °C, 6 hours, LC-MS/MS, mean (n=3); for Recovery: 360 min, 100 µM. Background: The PAMPA barrier holds no transporters, so it reflects passive diffusion.

Here are results for 5 molecules from patent US20260364081A1, “METHOD FOR PREVENTING OR TREATING ATTENTION DEFICIT HYPERACTIVITY DISORDER (ADHD) AND FOR PREPARING A COMPOUND OR SALT THEREOF” (ASTROGEN, INC., priority 2023, published 2026).

Counter-ions that a name gives are not always drawn.

`CCOc1ccccc1OC[C@@H]1CNCCO1` [Example 6, (S)-viloxazine hydrochloride]: for the setting “hydrochloride”, the “Transport fraction (% T)” value worked out at 14.38% and the Recovery amounted to 81.3%.
On to `CCOc1ccccc1OC[C@@H]1CNCCO1` [Example 7, (S)-viloxazine sulfate], for which the “Transport fraction (% T)” value is 15.65% and the Recovery came out at 92.0%.
Consider `CCOc1ccccc1OC[C@@H]1CNCCO1` [Example 8, (S)-viloxazine hydrobromide], for which, under “hydrobromide”, the “Transport fraction (% T)” value was found to be 15.57% and the Recovery was 91.1%.
`CCOc1ccccc1OC[C@@H]1CNCCO1` [Example 10, (S)-viloxazine acetate]: the “Transport fraction (% T)” value is 16.43% and the Recovery worked out at 103.8%.
For the molecule `CCOc1ccccc1OC[C@@H]1CNCCO1` [Example 17, (S)-viloxazine (S)-ibuprofenate], the “Transport fraction (% T)” value is given as 15.05% and the Recovery was determined as 94.3%.
